One protein from ChEMBL document CHEMBL1129147, “A chiral recognition element with an unusual size constraint affects the potency and selectivity for peptidomimetic inhibitors of Candida albicans myristoyl-CoA:protein N-myristoyltransferase” (Bioorg Med Chem Lett, 1996) can be followed below.

The term Km denotes the substrate concentration at which the rate is half of its maximum.

Substrate in series [1]: CC(C)C[C@H](NC(=O)CN)C(=O)N[C@@H](Cc1ccc(O)cc1)C(=O)NCC(=O)N[C@@H](CO)C(=O)N[C@@H](CCCCN)C(=O)N[C@@H](CC(C)C)C(=O)N[C@@H](CO)C(N)=O
To be noted: Candida albicans.

Substrate in series [2]: CC(C)C[C@H](NC(=O)CN)C(=O)N[C@@H](Cc1ccc(O)cc1)C(=O)N[C@@H](C)C(=O)N[C@@H](CO)C(=O)N[C@@H](CCCCN)C(=O)N[C@@H](CC(C)C)C(=O)N[C@@H](CO)C(N)=O
To be noted: Candida albicans.

B1: Glycylpeptide N-tetradecanoyltransferase 1 (Homo sapiens), P30419 (protein)
chain: MADESETAVKPPAPPLPQMMEGNGNGHEHCSDCENEEDNSYNRGGLSPANDTGAKKKKKKQKKKKEKGSETDSAQDQPVKMNSLPAERIQEIQKAIELFSVGQGPAKTMEEASKRSYQFWDTQPVPKLGEVVNTHGPVEPDKDNIRQEPYTLPQGFTWDALDLGDRGVLKELYTLLNENYVEDDDNMFRFDYSPEFLLWALRPPGWLPQWHCGVRVVSSRKLVGFISAIPANIHIYDTEKKMVEINFLCVHKKLRSKRVAPVLIREITRRVHLEGIFQAVYTAGVVLPKPVGTCRYWHRSLNPRKLIEVKFSHLSRNMTMQRTMKLYRLPETPKTAGLRPMETKDIPVVHQLLTRYLKQFHLTPVMSQEEVEHWFYPQENIIDTFVVENANGEVTDFLSFYTLPSTIMNHPTHKSLKAAYSFYNVHTQTPLLDLMSDALVLAKMKGFDVFNALDLMENKTFLEKLKFGIGDGNLQYYLYNWKCPSMGAEKVGLVLQ
Take B1: the Km amounted to 4.6 µM in series [1] and 0.6 µM in series [2].
